These are literature values, as cited in patent US10500232B2, “Small molecule cellular reprogramming to generate neuronal cells” (The J. David Gladstone Institutes, a testamentary trust …, priority 2013, dated 2019).

Chains of the proteins cited; added tags and fusions are not shown.
UniProt P0DMS8, whole entry: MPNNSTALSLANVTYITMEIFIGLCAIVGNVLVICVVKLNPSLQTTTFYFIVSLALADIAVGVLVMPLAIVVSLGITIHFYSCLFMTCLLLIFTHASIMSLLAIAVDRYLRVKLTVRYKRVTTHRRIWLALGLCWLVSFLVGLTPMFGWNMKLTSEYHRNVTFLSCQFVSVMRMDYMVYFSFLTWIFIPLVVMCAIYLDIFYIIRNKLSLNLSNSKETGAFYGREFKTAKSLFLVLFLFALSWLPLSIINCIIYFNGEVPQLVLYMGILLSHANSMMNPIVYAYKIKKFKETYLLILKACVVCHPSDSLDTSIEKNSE

The target of the data set is human A3 adenosine receptors (Homo sapiens, UniProt P0DMS8). The note with it: cited from earlier work.

As for `CC(Cc1ccccc1)Nc1ncnc2c1ncn2C1OC(CO)C(O)C1O` (single isomer, unassigned; (-)) [(R)-PIA, (−)-N6-(2-Phenylisopropyl)adenosine], the inhibition constant (Ki) was roughly 1.2 nM. In the case of `C[C@@H](Cc1ccccc1)Nc1ncnc2c1ncn2[C@@H]1O[C@H](CO)[C@@H](O)[C@H]1O` [(S)-PIA, (2R,3S,4R,5R)-2-(hydroxymethyl)-5-[6-[[(2S)-1-phenylpropan-2-yl]amino]purin-9-yl]oxolane-3,4-diol], the inhibition constant (Ki) is roughly 240 nM.

Usually Ki stands for a dissociation constant, usually derived from enzyme kinetics or from competition with a known ligand.
